Reference: patent US9995734B2, “Human T cell line assay for evaluating the immunologic identity of glatiramer acetate preparations” (Mylan Inc., priority 2013, dated 2018)

Test system: Donor 2 T-Cell Line 206-1A7
Settings: Day 88, B-LCL, four days

Substance: glatiramer acetate [GMA]
- TNF-α secretion by ELISA: not detectable
